Data on two molecules can be found in patent US11465987B2, “Compounds for treatment of cancer” (ONCTERNAL THERAPEUTICS, INC., priority 2012, dated 2022).

Assay [1] concerns MDA-MB-435/LCCMDR1 multidrug-resistant melanoma cells. In words: Cytotoxicity (SRB) assay, MDA-MB-435/LCCMDR1. It is filed as cell-based. Particulars: MDR melanoma line vs sensitive parent line.
For assay [2], the system named is T1, tubulin colchicine binding site.
T1 construct: […]
In words: [3H]-colchicine competition-binding scintillation proximity assay. The settings on record: SPA, 0.03-100 μM. (SPA uses beads or plates that emit light when radiolabelled molecules are held near them.)

Structures are written as SMILES.

With `COc1ccc(-c2nc(C(=O)c3ccc(F)cc3)c[nH]2)cc1` [12cb, (4-fluorophenyl)(2-(4-methoxyphenyl)-1H-imidazol-4-yl)methanone], in assay [1], the “P-gp substrate / multidrug resistance in words” value was “not substrates for P-gp”. Also, in assay [2], the “colchicine site binding in words” value is listed as “competitively bound to tubulin colchicine binding site”. As to `COc1cc(C(=O)c2c[nH]c(-c3ccc(C)cc3)n2)cc(OC)c1OC` [12da, (2-(p-tolyl)-1H-imidazol-4-yl)(3,4,5-trimethoxyphenyl)methanone], the “P-gp substrate / multidrug resistance in words” value in assay [1] is “not substrates for P-gp”.
